SMILES strings stand for the structures.

The conditions of the experiment: in vivo.

As for `NCCNCCNCCN` [TETA, triethylenetetramine], the “SL · ER0, slope between TETA and Cu excretion rate” value is listed as 24.3 (17.4) (mg/L)^−1 · (μg/h).

These data come from patent US20220280450A1, “PREVENTION AND TREATMENT OF CORONAVIRUS AND RELATED RESPIRATORY INFECTIONS” (PhilERA New Zealand Ltd., priority 2021, published 2022).
